These results are taken from patent publication US5804595A, “Kappa opioid receptor agonists” (Regents of the University of Minnesota, priority 1995, dated 1998).

SMILES strings stand for the structures.

This experiment is described as follows: Mouse abdominal stretch (writhing) antinociception assay, icv and iv. (In writhing tests, fewer writhes than in controls are read as antinociception.)

Turning to `CN(C(=O)Cc1ccc(Cl)c(Cl)c1)[C@H](CN1CCCC1)c1cccc(NC(=O)C[C@H](N)C(=O)O)c1`, the selectivity (iv/icv) (Selectivity = iv/icv) turned out to be 56.5. Also, under “writhing, mice, icv, converted from nmol/mouse with 25 g/mouse”, the “icv - ED50” value amounted to 11 nmol/kg. Also, the “iv - ED50” value (writhing, mice, iv, converted from nmol/mouse with 25 g/mouse) came to 628 nmol/kg.
